How the values were obtained:
Recombinant human DDR1 = Recombinant human DDR1 (Homo sapiens, UniProt Q08345); assay: LanthaScreen Eu Kinase Binding Assay, DDR1; details: recombinant human DDR1 (2.5 nM; aa440-876, GST tag), Kinase Tracer 178 5 nM, time-resolved fluorescence, at least two independent replicates
Recombinant human DDR2 = Recombinant human DDR2 (Homo sapiens, UniProt Q16832); assay: LanthaScreen Eu Kinase Binding Assay, DDR2; details: recombinant human DDR2 (1.75 nM; aa427-855, GST tag), Kinase Tracer 178 10 nM, time-resolved fluorescence, at least two independent replicates

Sequences of proteins named here, by UniProt entry; tags and fusion partners are left off. Residues count along the entry.
UniProt Q08345, 440-876 isoform 2 limits assumed: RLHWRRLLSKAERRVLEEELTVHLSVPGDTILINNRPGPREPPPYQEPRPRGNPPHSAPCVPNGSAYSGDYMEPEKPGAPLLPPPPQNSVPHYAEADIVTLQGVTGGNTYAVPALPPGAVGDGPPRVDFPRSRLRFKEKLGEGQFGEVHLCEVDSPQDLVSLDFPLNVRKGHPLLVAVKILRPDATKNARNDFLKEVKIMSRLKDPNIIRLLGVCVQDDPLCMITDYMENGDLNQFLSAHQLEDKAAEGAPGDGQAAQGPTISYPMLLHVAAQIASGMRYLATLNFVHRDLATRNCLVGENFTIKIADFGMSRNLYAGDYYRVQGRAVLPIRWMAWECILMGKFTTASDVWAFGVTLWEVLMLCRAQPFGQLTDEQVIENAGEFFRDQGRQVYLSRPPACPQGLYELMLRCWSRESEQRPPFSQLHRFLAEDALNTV
UniProt Q16832, 427-855 limits assumed: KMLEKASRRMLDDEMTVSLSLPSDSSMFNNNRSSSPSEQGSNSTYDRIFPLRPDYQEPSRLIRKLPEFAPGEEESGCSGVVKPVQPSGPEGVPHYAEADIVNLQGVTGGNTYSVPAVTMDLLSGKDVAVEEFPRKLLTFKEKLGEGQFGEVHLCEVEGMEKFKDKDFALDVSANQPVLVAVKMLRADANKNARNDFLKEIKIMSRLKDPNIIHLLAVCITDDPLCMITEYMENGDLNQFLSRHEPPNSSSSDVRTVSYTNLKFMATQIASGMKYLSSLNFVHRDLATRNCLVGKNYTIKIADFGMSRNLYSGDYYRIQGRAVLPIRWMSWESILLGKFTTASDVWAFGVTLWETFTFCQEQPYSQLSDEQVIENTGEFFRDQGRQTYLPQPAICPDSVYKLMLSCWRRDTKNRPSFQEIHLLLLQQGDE

Row | DDR1 pIC50 (Recombinant human DDR1) | DDR2 pIC50 (Recombinant human DDR2) | SMILES
1 | C (7≥pIC50>6) | D (pIC50≤6) | Cc1n[nH]c2cc(Nc3cccc4ccn(CC(=O)NCC(F)(F)F)c(=O)c34)cnc12
2 | D (pIC50≤6) | D (pIC50≤6) | O=C(Cn1ccc2cccc(Nc3ccc4[nH]nc(C(F)(F)F)c4c3)c2c1=O)NCC(F)(F)F
3 | B (8≥pIC50>7) | B (8≥pIC50>7) | Cn1ncc2cc(Nc3c(F)ccc4ccn(CC(=O)NCC(F)(F)F)c(=O)c34)ccc21

Row | SMILES | DDR1 pIC50 (Recombinant human DDR1) | DDR2 pIC50 (Recombinant human DDR2)
4 | Cn1ncc2cc(Nc3cccc4ccn(CC(=O)Nc5cccc(C(F)(F)F)c5)c(=O)c34)ccc21 | B (8≥pIC50>7) | B (8≥pIC50>7)

Source: patent publication US12692247B2, “Phenyl- and pyridopyrazole derivatives as inhibitors of DDR1” (Redx Pharma Limited, priority 2021, dated 2026)
